Values quoted from earlier work as cited in patent publication US11633512B2, “Method for disinfecting soils or other agricultural growing media” (Agrozono, S.L., priority 2017, dated 2023).

Test system: microorganisms
Conditions: compared to ozone 0.1 mg/l for 5 seconds; cited from earlier work

## chlorine
  application period necessary for disinfection: 4 h
